Literature values as cited in patent publication US6355675B1, “Emulsifiable concentrate of a water-insoluble fungicide” (ISP Investments Inc., priority 2001, dated 2002).

In the case of “Methoxyimino-{2-[3-(trifluoromethyl-phenyl)-ethylideneamino-oxymethyl]-phenyl}-acetic acid methyl ester [CGA 279202]”, the water solubility is listed as 0.6 ppm.
